Measurements from patent publication US20260060982A1, “USE OF BTK INHIBITOR AND SINGLE-DOSE DRUG” (HUBEI BIO-PHARMACEUTICAL INDUSTRIAL TECHNOLOGICAL INSTITUTE …, priority 2023, published 2026).

By UniProt entry, the sequences of proteins in these tests, tags left out. Where a name states a change or a piece, a line headed by the entry shows the natural chain unless it says otherwise.
UniProt Q06187: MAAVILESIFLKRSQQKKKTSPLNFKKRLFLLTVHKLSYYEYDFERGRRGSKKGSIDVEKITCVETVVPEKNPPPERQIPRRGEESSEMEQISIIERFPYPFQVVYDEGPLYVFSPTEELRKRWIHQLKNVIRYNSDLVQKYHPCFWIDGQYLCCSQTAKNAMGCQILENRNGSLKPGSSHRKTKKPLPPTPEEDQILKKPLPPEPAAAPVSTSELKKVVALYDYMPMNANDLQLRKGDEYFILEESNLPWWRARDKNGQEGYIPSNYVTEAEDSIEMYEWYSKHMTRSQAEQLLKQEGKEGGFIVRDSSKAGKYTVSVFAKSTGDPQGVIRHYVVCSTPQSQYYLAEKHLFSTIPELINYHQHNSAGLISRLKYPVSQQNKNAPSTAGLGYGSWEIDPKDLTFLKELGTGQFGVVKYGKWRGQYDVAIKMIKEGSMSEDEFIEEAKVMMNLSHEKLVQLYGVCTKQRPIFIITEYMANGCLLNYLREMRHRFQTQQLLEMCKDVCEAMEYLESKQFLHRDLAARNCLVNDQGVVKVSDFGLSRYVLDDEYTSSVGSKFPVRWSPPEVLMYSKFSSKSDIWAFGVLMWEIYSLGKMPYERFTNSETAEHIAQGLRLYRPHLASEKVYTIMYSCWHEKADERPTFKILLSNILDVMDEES

Target: BTK (Homo sapiens, UniProt Q06187)
Assay: Inhibition of BTK kinase activity (HTRF)
Format: biochemical
Protocol: The specific experimental steps were as follows:
The BTK kinase/peptide mix solution was added to the assay plate at 5 μL per well, and centrifuged at 1000 rpm for 1 min. The assay plate was incubated at 23° C. for 15 min.
C. An ATP solution (3968 μL of 1.33× kinase reaction buffer and […] of 10 mM ATP) was prepared, added to the assay plate at 2.5 μL per well, and centrifuged at 1000 rpm for 1 min. The assay plate was incubated at 23° C. for 90 min.
The assay plate was incubated at 23° C. for 60 min and read on the Envision multilabel reader.
E. IC50 results were analyzed using XLFIT5 (Formula 205) from IDBS.

IC50: ~20 nM
SMILES: C=CC(=O)Nc1cccc(Nc2nc(Nc3ccc(OCCOC)cc3)ncc2F)c1 [CC-292, reference compound]
